What was measured:
Chitotriosidase-1 = Chitotriosidase-1 (Homo sapiens, UniProt Q13231); assay: ASSAY_NAME: Human CHIT1 Activity Assay DESCRIPTION: An enzymatic assay with recombinant human CHIT1 was used in order to establish inhibitory activity of the compounds (Boot et al., 2001, JBC: 276). The assay was run in the 96-well plate format, each reaction in the total volume of 100 μL. 4-methylumbelliferyl β-D-N,N′,N″-triacetylchitotriose was used as a substrate for the e
[1] = target: Acidic mammalian chitinase (Homo sapiens, UniProt Q9BZP6); assay: ASSAY_NAME: Human AMCase Activity Assay DESCRIPTION: An enzymatic assay with recombinant human AMCase was used in order to establish inhibitory activity of the compounds (Boot et al., 2001, JBC: 276). The assay was run in the 96-well plate format, each reaction in the total volume of 100 μL. 4-Methylumbelliferyl B-D-N,N′-diacetylchitobioside hydrate was used as a substrate for the enzym

The chains behind the UniProt entries cited, without tags or fusion partners. Where a name states a change or a piece, a line headed by the entry shows the natural chain unless it says otherwise.
UniProt Q13231: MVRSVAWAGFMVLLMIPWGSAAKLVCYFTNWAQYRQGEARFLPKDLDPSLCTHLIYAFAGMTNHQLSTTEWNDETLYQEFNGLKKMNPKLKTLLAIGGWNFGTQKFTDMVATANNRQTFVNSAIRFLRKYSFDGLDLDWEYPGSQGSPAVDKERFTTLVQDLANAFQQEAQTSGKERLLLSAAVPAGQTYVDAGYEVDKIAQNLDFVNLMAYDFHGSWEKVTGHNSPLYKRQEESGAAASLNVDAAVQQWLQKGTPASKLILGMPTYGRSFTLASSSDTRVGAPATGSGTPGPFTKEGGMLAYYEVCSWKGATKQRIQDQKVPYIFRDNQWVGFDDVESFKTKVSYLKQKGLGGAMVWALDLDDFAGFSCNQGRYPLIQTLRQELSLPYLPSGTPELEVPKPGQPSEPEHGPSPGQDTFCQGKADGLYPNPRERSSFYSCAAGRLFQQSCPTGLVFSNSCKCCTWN
UniProt Q9BZP6: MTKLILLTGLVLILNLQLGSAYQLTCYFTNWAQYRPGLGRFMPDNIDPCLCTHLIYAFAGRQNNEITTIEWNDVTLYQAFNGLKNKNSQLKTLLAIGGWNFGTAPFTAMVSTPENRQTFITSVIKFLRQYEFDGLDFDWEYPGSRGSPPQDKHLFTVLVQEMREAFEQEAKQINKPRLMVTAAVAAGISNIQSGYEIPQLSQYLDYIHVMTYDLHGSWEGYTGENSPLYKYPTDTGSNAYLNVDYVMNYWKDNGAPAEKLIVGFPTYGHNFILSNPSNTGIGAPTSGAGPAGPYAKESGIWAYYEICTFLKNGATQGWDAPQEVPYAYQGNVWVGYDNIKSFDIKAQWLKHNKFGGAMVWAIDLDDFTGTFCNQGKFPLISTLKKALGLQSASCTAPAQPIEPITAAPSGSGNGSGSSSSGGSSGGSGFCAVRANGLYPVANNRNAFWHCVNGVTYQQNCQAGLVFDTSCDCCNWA

IC50 (Chitotriosidase-1)	IC50 [1] [µM]	Structure (SMILES)
in the range around 5.5 µM		NC(=O)[C@@H]1CN(C2CCN(c3nnc(N)[nH]3)CC2)C(Cc2ccc(Cl)cc2)CO1 (some centres not stated) [US10208020, Example 8]
	< 0.1	COC[C@H]1CN(C2CCN(c3nnc(N)[nH]3)CC2)C(Cc2ccc(Cl)cc2)CO1 (some centres not stated) [US10208020, Example 10]

— BindingDB's records for patent US10208020 (Oncoarendi Therapeutics, 2019)
